Assay results published in ChEMBL document CHEMBL1158389, “Highly twisted adamantyl arotinoids: synthesis, antiproliferative effects and RXR transactivation profiles” (Eur J Med Chem, 2009).

Test system: Jurkat
Assay: Antiproliferative activity against human Jurkat T cells after 48 hrs by MTT assay
Type: functional, cell-based

SMILES | Activity
COCCOCOc1ccc(C(=O)/C=C/c2ccc(C(=O)O)cc2)cc1C12CC3CC(CC(C3)C1)C2 | Dose-dependent effect
C/C(=C/c1ccc(C(=O)O)cc1)c1ccc(O)c(C23CC4CC(CC(C4)C2)C3)c1 | Dose-dependent effect
